This is a selection; strong and weak results do not stand in their true shares. Some results for these compounds are left out of this collection, so the calls shown say nothing about other tests. Active and inactive are the calls of the source.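 How the source made its calls: active means inhibition above a set limit, the median over all tested compounds plus 3 SD (cut at about 9.5% in these data); inconclusive means no clear call, values can overlap the other calls; inactive means the rest.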

This assay deals with HMG-CoA reductase (Enterococcus faecalis, mvaE). Nature of the assay: inhibitors of E. faecalis class II HMGR, primary screen, biochemical, Enterococcus faecalis (AID 1066).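 Further: enzyme runs in reverse so mevalonate oxidation gives rising NADPH absorbance; 0% = complete reaction with DMSO and 100% = background rate lacking mevalonate.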 The conditions noted are these: purified E. faecalis HMGR, NADPH absorbance 340 nm kinetic; at 10 µM; hits give high values.
One may read the inhibition as the relative decrease from the control value, in per cent. Consider `COc1cccc(C(=O)NCC2(N3CCCCC3)CCCCC2)c1`, for which the inhibition was inactive: -1.15%. Under `CN(C)c1cccc(C(=O)NCC2(N(C)C)CCCCC2)c1` stands inactive: -3.55%. The figure for `O=C(OC1CN2CCC1CC2)C(CO)(c1ccccc1)c1ccccc1` (centres undefined) is inactive: -1.8%.

Regarding `CC(C)N1C(=O)CC2(CCN(CCOC(=O)C(O)(c3ccccc3)c3ccccc3)CC2)C1=O`, the inhibition was inactive: -3.66%. As to `O=C(NCC1(N2CCCCC2)CCCCC1)c1cc([N+](=O)[O-])ccc1Cl`, the inhibition is inactive: -0.54%. The figure for `CCN1CCCC(OC(=O)C2(O)c3ccccc3C=Cc3ccccc32)C1` (centres undefined) is inactive: -5.83%; for `C=CCN1CCN(CCOC(=O)C(O)(c2ccccc2)c2ccccc2)CC1` it is inactive: 0.33%; for `CN(C)C1CCCC1OC(=O)C(O)(c1ccccc1)c1ccccc1` (centres undefined) it is inactive: -2.6%. For `Cc1ccccc1C(=O)NCC1(N2CCCCC2)CCCCC1`, the inhibition was inactive: -1.4%.

The record behind these values is PubChem BioAssay AID1066 (SRMLSC, 2008).
